Laboratory results from article PMC12297036, “Development of a Potential Bone-Seeking Radiopharmaceutical by Sodium Pyrophosphate Labeled ^188Rhenium (^188Re-PYP) for Bone Pain Palliation” (Iranian Journal of Pharmaceutical Research : IJPR, 2025).

What was measured:
[1] = BALB/c mice
[2] = 37°C, up to 48 hours after complexation

For rhenium-^188-pyrophosphate [^188Re-PYP], the “uptake in bone (maximum affinity)” value ([1]; bone, after 4 hours) was 2.24% ± 0.667%, the “maximum uptake for the kidney” value ([1]; kidney) was 1.53% ± 0.378% and the “maximum uptake for the liver” value ([1]; liver) was 0.18% ± 0.12%. For the same substance, the “maximum uptake for the spleen” value ([1]; spleen) was 0.13% ± 0.086% and the “stability in human serum (radiochemical purity)” value [2] was 90.86%.
